Values quoted from earlier work in patent US7947280B2 (priority 2003, dated 2011).

Tested on: isolated rat heart
Details: Szokodi et al; cited from earlier work

For apelin, the “maximum developed tension relative to isoproterenol” value is given as 70%.
